Screens (PubChem BioAssay)
This is a sample that favours compounds with a hit; in the whole collection about 13% have one here.
G9a block = inhibitors of human histone lysine methyltransferase G9a. G9a H3K9 monomethylation, AlphaScreen, 2 h. Potency, µM (doses to about 102 µM), for the others: top-dose activity, negative = inhibition, actives largely listed as inhibitors. actives 8.8% (n = 350,000). AID 504332; also: potency is read from the fitted curve at half-maximal effect; % is scaled to controls: 0 for no effect and ±100 for the full control effect; nearly all actives have a fitted effect of over 75% in size
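Chemiluminescent proximity detection of H3K9 monomethylation, read after 10 min bead incubation in the dark. Reaction: 20 nM G9a, 500 nM biotin-H3K9 peptide, 20 uM SAM cofactor, 2 h, room temperature, following 15 min enzyme-compound preincubation.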
miR-21 reporter = raises the signal of a miR-21 reporter | HeLa miR-21 FLuc reporter, luciferase, 48 h | Potency, µM (highest dose often 38.3 µM), inactives show at the highest dose reporter change, positive = more light | 340,000 tested, under 10 active | AID 2288; active = well fitted rising curve with a large enough effect; inconclusive = small, poorly fitted or top-dose-only effect; inactive = no such curve, though single readings can be large or run the other way;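 note: % of control where 0% means no effect; miR-21 action dims this reporter so a rising signal means less miR-21 action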
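HeLa cells endogenously expressing miR-21, stably carrying CMV-driven firefly luciferase with a downstream miR-21 binding site, 2000 cells/well. Titrations up to approximately 40 uM, 48 hours; luciferase luminescence read.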
Sfp inh = qHTS Assay for Inhibitors of Bacillus subtilis Sfp phosphopantetheinyl transferase (PPTase) | 4'-phosphopantetheinyl transferase ffp (Bacillus subtilis), Q9F4F7 | Biochemical Sfp PPTase activity, qHTS | Potency, µM, for inactives: max response, negative = inhibition, hits mostly inhibitors | 3.5% of 310,000 active | AID 1490, 2009; active = well fitted inhibition curve with a large enough effect; inconclusive = small, poorly fitted or top-dose-only effect, or another doubt; inactive = no such curve, though single readings can be large or run the other way;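 also: the enzyme is Sfp with the accession as filed and its product quenches rhodamine fluorescence; potency is read from the fitted curve at half-maximal effect; 0% = enzyme reaction without inhibitor and -100% = no enzyme wells; top concentration of the series not given in the record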
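Reaction rates are the 30-min fluorescence difference (ex 525, em 598 nm) in wells containing 15 nM Sfp, 5 uM rhodamine-CoA and 12.5 uM BHQ-2-YbbR at pH 7.6 with 10 mM MgCl2.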
ALDH1A1 block = inhibitors of human aldehyde dehydrogenase 1A1. Potency, µM (titrated, usually from 75.3 µM), inactives show at the top dose activity, negative = inhibition, most hits filed as inhibitors. P00352. actives 7.3% (n = 220,000). Purified ALDH1A1, NADH fluorescence, propionaldehyde substrate; active = well fitted inhibition curve with a large enough effect, not every such curve was filed as active; inconclusive = small, poorly fitted or top-dose-only effect, or another doubt; inactive = no such curve, though single readings can be large or run the other way;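 also: potency is read from the fitted curve at half-maximal effect; plate controls were no enzyme wells and a reference inhibitor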
KDM4E inh = blocks human JMJD2E demethylase activity; actives 1.6% (n = 230,000); AID 2147; Potency, µM (series often up to 57.1 µM), for inactives: at the top dose activity change, negative = inhibition, actives largely listed as inhibitors; JMJD2E catalytic domain, FDH-coupled NADH fluorescence (FDH is formaldehyde dehydrogenase);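 also: potency is read from the fitted curve at half-maximal effect; 0% = wells with enzyme and -100% = buffer wells without enzyme; nearly all actives have a fitted effect of over 50% in size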
LMNA splice mod = modulators of lamin A splicing. HeLa LMNA splicing GFP/RFP minigene ratio, 48 h. Potency, µM (titrated, usually from 46.1 µM), without a hit: top-dose ratio change, negative = inhibition, actives largely listed as inhibitors. actives 0.01% (n = 200,000); active = well fitted inhibition curve with a large enough effect in the signal ratio, with a control signal flat, not every such curve was filed as active; inconclusive = small, poorly fitted or top-dose-only effect, or effect the other way, or a change in a side signal; the % refers to the signal ratio; also: potency is read from the fitted curve at half-maximal effect; % is scaled to controls: 0 for no effect and ±100 for the full control effect
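S3 HeLa cells stably expressing lamin A-EGFP splicing minigene plus DsRed2, 600 cells/well, 48 h compound exposure at 37C. Laser-scanning cytometry; analysed as GFP (500-530 nm)/RFP (575-640 nm) total intensity ratio; 0.5% DMSO vehicle.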
Sfp inh conf = confirmation of Bacillus subtilis Sfp PPTase inhibitors; Sfp PPTase enzymatic assay, qHTS titration; actives 79% (n = 380); Potency, µM (top dose mostly 114 µM), for the others: at the top dose activity change, negative = inhibition, hits mostly inhibitors; AID 2701; shares compounds with Sfp inh;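 also: potency is read from the fitted curve at half-maximal effect; plate controls were uninhibited Sfp reaction for no effect and no enzyme control for full effect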
Sfp gel assay = Blocks Sfp PPTase activity, gel read-out | purified Sfp, gel-based phosphopantetheinylation read-out | shares compounds with Sfp inh | Potency, µM, hits mostly inhibitors | actives 20% (n = 210);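 active = potency below 100 µM; inconclusive = dose-dependent response but potency above 100 µM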;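 also: band intensities scaled against SCH202676 control wells before curve fitting; potency is an IC50 for inhibitors of Sfp transfer activity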
The depositor's hits bear a star; i = inactive; ? = inconclusive; . = no result; [ ] = another dose, or the depositor's remark. Unless noted, calls follow the shape of the dose curve; as a rule, active = well fitted curve in the direction sought with a large enough effect; inconclusive = small, poorly fitted or top-dose-only effect, or another doubt; inactive = no such curve, though single readings can be large; an effect the other way counts as inactive or inconclusive.

The line under a structure holds: LMNA splice mod, ALDH1A1 block, miR-21 reporter, Sfp inh conf, KDM4E inh, Sfp gel assay, Sfp inh, G9a block
(1) COc1ccccc1CC(Cc1nc2ccccc2[nH]1)c1nc2ccccc2[nH]1 (stereo not drawn)
    29%[46 µM], 11%, 12%, 17µM*, 35%, ., 5µM*, 7%
(2) C=C1C(=O)[C@]23[C@H](O)[C@H]1CC[C@H]2[C@@]12COC3(O)[C@H](O)[C@@H]1C(C)(C)CC[C@@H]2O
    ., 9%, ., 26µM*, ., ?, 13µM*, 7.1µM*
(3) O=C(CSc1nnc(SCC(=O)c2ccco2)s1)c1ccco1
    -13%, ?, -11%, 47µM*, -2%, ?, 14µM*, -12%[59 µM]
(4) O=C(CSc1nc2cc(Cl)ccc2s1)c1ccco1
    14%, ?, -44%, ., -1%, ., -3%, 15%
(5) Oc1ccccc1CNc1cccc2cccnc12
    18%[46 µM], ?, -67%, 42µM*, ?, ., 7.9µM*, ?
(6) N[C@@H](Cc1ccc(O)c(O)c1)C(=O)O
    -3%, -5%[20.9 µM], ., -6%[53.7 µM], 13µM*, ?, 40µM*, 20µM*
(7) CCOC(=O)c1nn(-c2ccc(C)cc2)c(=O)c2c(N)scc12
    -3%, 18µM*, 23%, 19µM*, ?, ., 3.5µM*, 1.3µM*
(8) Cc1ccc(-n2c(Cc3cccn3C)nnc2SCC(=O)NCc2ccco2)cc1
    21%, -1%, 2%, ?, -20%, i, 6.3µM*, 50µM*
(9) Cc1ccc(-n2c(CSc3nc(C)cc(C)n3)nnc2SCC(=O)NCc2ccco2)cc1
    8%, 3%, -4%, ., 0%, ., ?, 16%[59 µM]
(10) Cc1cccc(Nc2nc(NCc3ccco3)c3ccccc3n2)c1
    ?, ?, ?, 37µM*, -5%, i, 2.5µM*, 18µM*

Four compounds from above, sorted by molar mass, descending:
The line under a structure holds: LMNA splice mod, ALDH1A1 block, miR-21 reporter, Sfp inh conf, KDM4E inh, Sfp gel assay, Sfp inh, G9a block
(9) Cc1ccc(-n2c(CSc3nc(C)cc(C)n3)nnc2SCC(=O)NCc2ccco2)cc1
    8%, 3%, -4%, ., 0%, ., ?, 16%[59 µM]
(4) O=C(CSc1nc2cc(Cl)ccc2s1)c1ccco1
    14%, ?, -44%, ., -1%, ., -3%, 15%
(5) Oc1ccccc1CNc1cccc2cccnc12
    18%[46 µM], ?, -67%, 42µM*, ?, ., 7.9µM*, ?
(6) N[C@@H](Cc1ccc(O)c(O)c1)C(=O)O
    -3%, -5%[20.9 µM], ., -6%[53.7 µM], 13µM*, ?, 40µM*, 20µM*

The list continues.
The line under a structure holds: LMNA splice mod, ALDH1A1 block, miR-21 reporter, Sfp inh conf, KDM4E inh, Sfp gel assay, Sfp inh, G9a block
(11) Oc1ccc(NCc2ccccc2OCc2ccccc2)cc1
    ?, 5.6µM*, ?, 11µM*, 11µM*, ?, 25µM*, 1.8µM*
(12) Cc1cccc2cc3c(nc12)SC(=NCC1CCCO1)N(Cc1ccco1)C3 (stereo not drawn)
    -8%, 4.5µM*, ?, 6.6µM*, 2%, 6.2µM*, 3.5µM*, 6.3µM*
(13) COc1ccc(Cl)cc1-n1c(=S)sc2c(=O)[nH]c(SCC(=O)C(C)(C)C)nc21
    ., ., 11%, ., ., ., -5%, -24%
(14) COc1ccc(Nc2nc3[nH]c(=O)cc(O)c3s2)cc1
    ., 2%, -9%, 19µM*, -4%, i, 4µM*, ?
(15) COc1ccc(Nc2nc(C)cc(=O)[nH]2)cc1
    2%, 5%, -3%, ., 4%, ., -25%, -44%
(16) COc1ccccc1NC(=O)CSc1nnc(-c2ccccn2)n1Cc1ccco1
    ?, -11%, -1%, 59µM*, 2%, i, 4.5µM*, ?
(17) Nc1ncnc2c1ncn2CCOc1ccccc1
    -16%, -3%, -55%, ., -4%, ., -1%, 9%[59 µM]
(18) CC(C)(C)C(=O)OCOP(=O)(COCCn1cnc2c(N)ncnc21)OCOC(=O)C(C)(C)C
    -15%, ., ., ?, ., ?, 56µM*, 6.3µM*
(19) O=C(CC(Nc1ccc(F)cc1)C(=O)O)c1ccccc1 (stereo not drawn)
    7%, ?, -57%, 15µM*, -2%, i, 2.2µM*, 10µM*
(20) Cc1cc(-n2cnnn2)cc(C)c1S(=O)(=O)NCCOc1ccccc1
    ., ., -10%, ., ., ., 23%, 67%
(21) S=C(Nc1cccc(Cl)c1)Nc1ccccc1Oc1ccccc1
    4%, ?, 8%, ., 5%, ., 9%, 102%[59 µM]
(22) S=C(Nc1cccc(Cl)c1)Nc1cccc2cnccc12
    ?, 3.2µM*, ?, 13µM*, -1%, ?, 1.4µM*, ?
